Test system: JAK1/2-STAT3 pathway
Test: IL-6-induced STAT3 phosphorylation in follicular keratinocytes of the outer root sheath (ORS)
Format: cell-based, human
Conditions: 5 μM, 1 h pre-treatment, IL-6 100 ng/ml 15 minutes
From the text: The goal of this example is to confirm the inhibitor activity of an extract of Lespedeza capitata on the JAK-STAT signalling pathway in a cell model, follicular keratinocytes of the outer epithelial sheath of the hair follicle (outer root sheath (ORS) model). In this model, interleukin IL-6 is used to activate the JAK1/2-STAT3 pathway by activation of IL-6 and GP130 receptors which are both expressed in this hair follicle epithelial sheath. II-6 is a cytokine that acts as a hair growth cycle inhibitor. Its overexpression in a transgenic mouse model leads to delayed hair growth. Moreover, in androgenetic alopecia, IL-6 would be overexpressed in dermal papilla cells under the influence of androgens (Kwack et al., 2012, J Invest Dermatology 132(1): 43-9). It has also been reported that IL-6 delays hair follicle growth in humans.
The study is performed on follicular keratinocytes of the outer epithelial sheath of the hair follicle (outer root sheath (ORS) model). The keratinocytes are cultured in 96-well plates in an appropriate medium (CnT-PR from CelINTech). Twenty-four hours later, the cells are washed with an alkaline phosphate buffer (PBS) and the medium is exchanged for CnT-PR-H (standard maintenance medium for primary human keratinocytes). […]. The Lespedeza capitata tested is an extract prepared according to Example 5 of the present invention. […]

With `C[C@@H]1CCN(C(=O)CC#N)C[C@@H]1N(C)c1ncnc2[nH]ccc12` [Tofacitinib, tofacitinib] the “% of STAT phosphorylated, Mean” value was 99%.
